Source: US20150297615A1, “ANDROGEN RECEPTOR INACTIVATION CONTRIBUTES TO ANTITUMOR EFFICACY OF CYP17 INHIBITORS IN PROSTATE CANCER” (UNIVERSITY OF MARYLAND, BALTIMORE, priority 2008, published 2015)

Tested on: LAPC4 cells
Assay: Cell proliferation assay (MTT), LAPC4 cells
Conditions: read-out: LAPC4 IC50 (μM), DHT −, without DHT, 7 days

SMILES: C[C@]12CCC(=O)C=C1CCC1C2CC[C@]2(C)C(n3cnc4ccccc43)=CCC12 (stereo partly shown)
- IC50: 3 µM
